Experimental data reported in patent publication US8772241B2, “Peptide and use thereof” (Ensoltek Co., Ltd., priority 2010, dated 2014).

Tested on: damaged cartilage tissue explants (articular chondrocyte explants)
Test: Cartilage regeneration in damaged cartilage tissue explants
Type: cell-based, cows
Details: 6-week culture; 25 μM peptide and/or 2 ng/ml TGFβ1
Description: Using a syringe (21G) whose tip was truncated and ground, damaged regions were prepared by making vertical holes to the surface uniformly at the center of the explant.
The perforated tissue explants were divided into 4 groups including a control group. […] In addition, the 1-week-incubated tissue explant and the 6-week-incubated tissue explant were fixed, respectively, in a 3.7% formaldehyde/phosphate buffered saline(3.7% formaldehyde/PBS). Then, according to the experimental method of standard histochemistry, paraffin section slides were prepared, followed by hematoxylin & eosin (H&E) staining and microscopic examination of cell shape and distribution in terms of morphology. Collagen was subjected to Masson's trichrome staining, and the shape and distribution of cells in the tissue were examined under a microscope. For comparison, the control group was treated in the same manner as in the group treated with the peptide of Example 1, except that the peptide of Example 1 was not treated.

TGFβ1: transforming growth factor beta 1 (TGFβ1, Promokine)
damaged region of explant, hematoxylin & eosin staining (FIG. 4): substantially no change
